Where two headings read alike, the source gives them in different places.
Biological target: Keap1-Maltose Binding Protein (MBP tag) (Homo sapiens, UniProt Q14145)
Test: Nrf2-Keap1 HTRF (TR-FRET) binding assay: displacement of biotinylated ETGE peptide from Keap1-MBP

Sequences of proteins named here, by UniProt entry; tags and fusion partners are left off.
UniProt Q14145, whole entry: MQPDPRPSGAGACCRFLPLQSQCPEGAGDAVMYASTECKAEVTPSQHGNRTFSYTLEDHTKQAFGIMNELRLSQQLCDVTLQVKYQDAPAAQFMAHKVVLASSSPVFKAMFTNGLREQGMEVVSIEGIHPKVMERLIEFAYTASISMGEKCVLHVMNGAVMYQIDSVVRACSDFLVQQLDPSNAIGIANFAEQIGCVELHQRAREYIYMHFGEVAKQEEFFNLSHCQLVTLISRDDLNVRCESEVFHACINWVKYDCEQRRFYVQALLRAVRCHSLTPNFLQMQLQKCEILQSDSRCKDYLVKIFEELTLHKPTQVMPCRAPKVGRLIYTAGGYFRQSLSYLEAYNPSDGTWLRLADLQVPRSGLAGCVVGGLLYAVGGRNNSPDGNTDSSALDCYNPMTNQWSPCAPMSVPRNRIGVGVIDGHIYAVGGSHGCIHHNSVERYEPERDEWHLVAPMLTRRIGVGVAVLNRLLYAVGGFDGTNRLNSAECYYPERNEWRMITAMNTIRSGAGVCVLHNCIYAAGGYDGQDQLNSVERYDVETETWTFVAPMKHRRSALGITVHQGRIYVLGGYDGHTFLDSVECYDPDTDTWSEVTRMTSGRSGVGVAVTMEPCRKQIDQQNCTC

Row | SMILES | IC50 | IC50 (HTRF (TR-FRET), displacement of ETGE-biotin from Keap1-MBP, values banded into grades, read-out: Binding (IC50) ETGE-Keap1)
1 | CCCCCCCCCCCCCCCCCCCC(=O)N[C@H]1C[C@H]2C(=O)N[C@@H](CCC(N)=O)C(=O)N[C@H]3CSCc4ccccc4CSC[C@H](NC(=O)[C@H](CCC(=O)O)NC(=O)CNC(=O)[C@H]([C@@H](C)O)NC(=O)[C@H](CCC(=O)O)NC(=O)[C@@H]4CSCN4C(=O)[C@H](CC(=O)O)NC3=O)C(=O)N[C@@H](CC(C)C)C(=O)N3CCC[C@@H]3C(=O)N2C1 [Example 93, {[&^1Pro((4S)-NH-Arachidyl)-Gln-Cys(&^2)-Asp-Thz-Glu-Thr-Gly-Glu-Cys(&^3)-Leu-D-Pro&^1][&^2(1,2-phenylenediyl)dimethylene&^3]}] | < 1 nM | –
2 | CCCCCCCCCCCCCCCCCC(=O)N[C@H]1C[C@H]2C(=O)N[C@@H](CCC(N)=O)C(=O)N[C@H]3CSCC4(COC4)CSC[C@H](NC(=O)[C@H](CCC(=O)O)NC(=O)CNC(=O)[C@H]([C@@H](C)O)NC(=O)[C@H](CCC(=O)O)NC(=O)[C@@H]4CCCN4C(=O)[C@H](CC(=O)O)NC3=O)C(=O)N[C@@H](CC(C)C)C(=O)N3CCC[C@@H]3C(=O)N2C1 [Example 79, {[&^1Pro((4S)-NH-Stearyl)-Gln-Cys(&^2)-Asp-Pro-Glu-Thr-Gly-Glu-Cys(&^3)-Leu-D-Pro&^1][&^2(3,3-oxetanediyl)dimethylene&^3]}] | 1 to 100 nM | –
3 | CCCCCCCCCCCCCCCCCCCC(=O)N[C@H]1C[C@H]2C(=O)N[C@@H](CCC(N)=O)C(=O)N[C@H]3CSCC4(COC4)CSC[C@H](NC(=O)[C@H](CCC(=O)O)NC(=O)CNC(=O)[C@H]([C@@H](C)O)NC(=O)[C@H](CCC(=O)O)NC(=O)[C@@H]4CSCN4C(=O)[C@H](CC(=O)O)NC3=O)C(=O)N[C@@H](CC(C)C)C(=O)N3CCC[C@@H]3C(=O)N2C1 [Example 94, {[&^1Pro((4S)-NH-Arachidyl)-Gln-Cys(&^2)-Asp-Thz-Glu-Thr-Gly-Glu-Cys(&^3)-Leu-D-Pro&^1][&^2(3,3-oxetanediyl)dimethylene&^3]}] | < 1 nM | –
4 | CC(=O)N[C@H]1CSCc2ccccc2CSC[C@@H](C(=O)NCCC(=O)N[C@@H](CCCNC(=N)N)C(=O)N[C@@H](CCCCN)C(=O)N[C@@H](CCCCN)C(=O)N[C@@H](CCCNC(=N)N)C(=O)N[C@@H](CCCNC(=N)N)C(=O)N[C@@H](CCC(N)=O)C(=O)N[C@@H](CCCNC(=N)N)C(=O)N[C@@H](CCCNC(=N)N)C(=O)N[C@@H](CCCNC(=N)N)C(N)=O)NC(=O)[C@H](CCC(=O)O)NC(=O)CNC(=O)[C@H]([C@@H](C)O)NC(=O)[C@H](CCC(=O)O)NC(=O)[C@H](C)NC(=O)[C@H](CC(=O)O)NC1=O [Example 21] | – | 1 to 100 nM
5 | CC(C)C[C@H](NC(=O)[C@H](CC(C)C)NC(=O)[C@@H]1CSCc2ccc3ccccc3c2-c2c(ccc3ccccc23)CSC[C@H](NC(=O)[C@H](CC(C)C)NC(=O)[C@@H](N)CC(C)C)C(=O)N[C@@H](CC(=O)O)C(=O)N2CCC[C@H]2C(=O)N[C@@H](CCC(=O)O)C(=O)N[C@@H]([C@@H](C)O)C(=O)NCC(=O)N[C@@H](CCC(=O)O)C(=O)N1)C(=O)NCCC(=O)N[C@@H](CCCNC(=N)N)C(=O)N[C@@H](CCCCN)C(=O)N[C@@H](CCCCN)C(=O)N[C@@H](CCCNC(=N)N)C(=O)N[C@@H](CCCNC(=N)N)C(=O)N[C@@H](CCC(N)=O)C(=O)N[C@@H](CCCNC(=N)N)C(=O)N[C@@H](CCCNC(=N)N)C(=O)N[C@@H](CCCNC(=N)N)C(N)=O [Example 63] | 1 to 100 nM | –
6 | CCCCCCCCCCCCCCCCCC(=O)NCCC(=O)N[C@H]1CCCCNC(=O)[C@@H]2CCCN2C(=O)[C@H](CC(C)C)NC(=O)[C@@H]2CSCc3ccccc3CSC[C@H](NC(=O)[C@H](CCC(N)=O)NC1=O)C(=O)N[C@@H](CC(=O)O)C(=O)N1CCC[C@H]1C(=O)N[C@@H](CCC(=O)O)C(=O)N[C@@H]([C@@H](C)O)C(=O)NCC(=O)N[C@@H](CCC(=O)O)C(=O)N2 [Example 49, {[Stearyl-βAla-Lys(&^1)-Gln-Cys(&^2)-Asp-Pro-Glu-Thr-Gly-Glu-Cys(&^3)-Leu-Pro&^1][&^2(1,2-phenylenediyl)dimethylene&^3]}] | 1 to 100 nM | –
7 | CCCCCCCCCCCCCCCCCC(=O)N[C@H]1C[C@H]2C(=O)N[C@@H](CCC(N)=O)C(=O)N[C@H]3CSCc4cncc(c4)CSC[C@H](NC(=O)[C@H](CCC(=O)O)NC(=O)CNC(=O)[C@H]([C@@H](C)O)NC(=O)[C@H](CCC(=O)O)NC(=O)[C@@H]4CCCN4C(=O)[C@H](CC(=O)O)NC3=O)C(=O)N[C@@H](CC(C)C)C(=O)N3CCC[C@@H]3C(=O)N2C1 [Example 84, {[&^1Pro((4S)-NH-Stearyl)-Gln-Cys(&^2)-Asp-Pro-Glu-Thr-Gly-Glu-Cys(&^3)-Leu-D-Pro&^1][&^1(pyridine)3,5-diyldimethylene&^2]}] | 1 to 100 nM | –
8 | CCCCCCCCCCCCCCCCCC(=O)N[C@H]1C[C@H]2C(=O)N[C@@H](CCC(N)=O)C(=O)N[C@H]3CSCc4ccccc4CSC[C@H](NC(=O)[C@H](CCC(=O)O)NC(=O)CNC(=O)[C@H]([C@@H](C)O)NC(=O)[C@H](CCC(=O)O)NC(=O)[C@@H]4CCCN4C(=O)[C@H](CC(=O)O)NC3=O)C(=O)N[C@@H](CC(C)C)C(=O)N3CCC[C@@H]3C(=O)N2C1 [Example 50, {[&^1Pro((4S)-NH-Stearyl)-Gln-Cys(&^2)-Asp-Pro-Glu-Thr-Gly-Glu-Cys(&^3)-Leu-D-Pro&^1][&^2(1,2-phenylenediyl)dimethylene&^3]}] | < 1 nM | –
9 | CCCCCCCCCCCCCCCCCC(=O)N[C@H]1C[C@H]2C(=O)N[C@@H](CCCCN)C(=O)N[C@H]3CSCc4ccccc4CSC[C@H](NC(=O)[C@H](CCC(=O)O)NC(=O)CNC(=O)[C@H]([C@@H](C)O)NC(=O)[C@H](CCC(=O)O)NC(=O)[C@@H]4CCCN4C(=O)[C@H](CC(=O)O)NC3=O)C(=O)N[C@@H](CC(C)C)C(=O)N3CCC[C@@H]3C(=O)N2C1 [Example 81, {[&^1Pro((4S)-NH-Stearyl)-Lys-Cys(&^2)-Asp-Pro-Glu-Thr-Gly-Glu-Cys(&^3)-Leu-D-Pro&^1][&^2(1,2-phenylenediy1)dimethylene&^3]}] | 1 to 100 nM | –
